The chains behind the UniProt entries cited, without tags or fusion partners. Residues count along the entry.
UniProt P25774, 115-331 limits assumed: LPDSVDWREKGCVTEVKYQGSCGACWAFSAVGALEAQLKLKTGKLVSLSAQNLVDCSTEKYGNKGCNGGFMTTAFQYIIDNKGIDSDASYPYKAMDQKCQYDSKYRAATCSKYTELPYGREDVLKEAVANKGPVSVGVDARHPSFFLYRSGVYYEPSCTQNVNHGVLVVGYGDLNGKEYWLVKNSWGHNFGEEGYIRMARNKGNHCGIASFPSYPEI
UniProt P07711, 114-288 limits assumed: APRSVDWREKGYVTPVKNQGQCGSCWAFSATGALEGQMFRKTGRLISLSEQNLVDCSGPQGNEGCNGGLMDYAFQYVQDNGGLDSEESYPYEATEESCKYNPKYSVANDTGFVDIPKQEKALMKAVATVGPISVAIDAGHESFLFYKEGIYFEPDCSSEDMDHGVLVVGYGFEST
UniProt P07711, 292-333 limits assumed: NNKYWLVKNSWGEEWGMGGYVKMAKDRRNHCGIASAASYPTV

In US20110207726A1, “Inhibitors of Human Cathepsin L, Cathepsin B, and Cathepsin S” (The Trustees of the University of Pennsylvania, priority 2008, published 2011):

Columns and labels:
Human spleen cathepsin S = Human spleen cathepsin S (Homo sapiens, UniProt P25774); assay: Cathepsin S assay, IC50 determination; conditions: read-out: IC50 Cat S; Table 1
Method: (§1) Human spleen cathepsin S (Calbiochem 219344, 40 ng/mL) was assayed using 15 microM Z-Phe-Arg-AMC substrate. Human liver cathepsin B (Calbiochem 219362, 65 ng/mL) was assayed using 15 microM Z-Arg-Arg-AMC substrate (Bachem I-1135). All reactions were performed in 20 mM sodium acetate buffer containing 1 mM EDTA and 5 mM cysteine, pH 5.5.
IC50 determinations were conducted with the following assay buffer: 20 mM sodium acetate, 1 mM EDTA, and 5 mM cysteine, pH 5.5. Compounds were serially diluted in DMSO and transferred into a 96-well Corning 3686 assay microplate to give a 16-point two-fold serial dilution dose response ranging from 25 microM to 760 pM. Human liver cathepsin L (Calbiochem 219402) was activated by incubating with assay buffer for 30 min. […]
(§2) Compound No. 1 was assayed for inhibition against papain and cathepsins B, G, K, S, and V. Papain from Carica papaya (Calbiochem 5125, 11 ng/mL), human cathepsin K (Calbiochem 342001, 35 ng/mL), human spleen cathepsin S (Calbiochem 219344, 40 ng/mL), and human cathepsin V (Calbiochem 219467, 39 ng/ml) were assayed using Z-Phe-Arg-AMC substrate at 20 μM, 20 μM, 15 μM, and 1 μM, respectively. […] Reaction progress was monitored using the Envision microplate reader. IC50 values were measured in triplicate.

Human liver cathepsin B = Human liver cathepsin B (Homo sapiens, UniProt P07858); assay: Cathepsin B assay, IC50 determination; conditions: read-out: IC50 Cat B; Table 1
Method: as §1
IC50 determinations were conducted with the following assay buffer: 20 mM sodium acetate, 1 mM EDTA, and 5 mM cysteine, pH 5.5. Compounds were serially diluted in DMSO and transferred into a 96-well Corning 3686 assay microplate to give a 16-point two-fold serial dilution dose response ranging from 25 microM to 760 pM. Human liver cathepsin L (Calbiochem 219402) was activated by incubating with assay buffer for 30 min. Upon activation, cathepsin L (300 pM, 8.7 ng/mL) was incubated with 1 microM Z-Phe-Arg-AMC substrate (Sigma C9521) and test compound in […] of assay buffer for 1 hour at room temperature. Fluorescence of AMC released by enzyme-catalyzed hydrolysis of Z-Phe-Arg-AMC was read on a PerkinElmer Envision microplate reader (excitation 355 nm, emission 460 nm). Data were scaled using internal controls and fitted to a four-parameter logistic model (IDBS XLfit equation 205) to obtain IC50 values in triplicate.
as §2, with “respectively. Human liver cathepsin B (Calbiochem 219362, 65 ng/mL) was assayed using 15 μM Z-Arg-Arg-AMC substrate (Bachem I-1135). Human neutrophil cathepsin G (Calbiochem 219373, 4.2 μg/mL) was assayed using 15 μM Suc-Ala-Ala-Pro-Phe-AMC substrate (Sigma S9761).” for “respectively.”

human liver cathepsin L = human liver cathepsin L (Homo sapiens, UniProt P07711); assay: Cathepsin L assay, IC50 determination

| pIC50 (Human liver cathepsin B) | pIC50 (human liver cathepsin L; read-out: IC50 Cat L, Table 1) | pIC50 (human liver cathepsin L; read-out: Cathepsin L inhibitory activity IC50, Table 17, n = 3, C, S or O at the sulfur position) | SMILES | pIC50 (Human spleen cathepsin S) |
| --- | --- | --- | --- | --- |
| < 4.60 | ≤ 4.60 |  | CC(C)(C)OC(=O)N[C@@H](CCC(=O)O)C(=O)NNC(=O)SCC(=O)N1CCCc2ccccc21 | < 4.60 |
|  |  | < 4.30 | CCc1ccccc1NC(=O)CCC(=O)NNC(=O)[C@H](Cc1c[nH]c2ccccc12)NC(=O)OC(C)(C)C [Compound No. 113] |  |
| 5.51 |  |  | CCc1ccccc1NC(=O)CSC(=O)NNC(=O)[C@H](Cc1ccccc1)NC(=O)OC(C)(C)C |  |

| SMILES | pIC50 (Human liver cathepsin B) | pIC50 (human liver cathepsin L; read-out: IC50 Cat L, Table 1) | pIC50 (human liver cathepsin L; read-out: Cathepsin L inhibitory activity IC50, Table 17, n = 3, C, S or O at the sulfur position) | pIC50 (Human spleen cathepsin S) |
| --- | --- | --- | --- | --- |
| CC(C)(C)OC(=O)N[C@@H](COCc1ccccc1)C(=O)NNC(=O)SCC(=O)N1CCOc2ccccc21 | 4.86 |  |  | 5.52 |

pIC50: −log10 of the molar value. Where two headings read alike, the source gives them in different places.
